# Data taken from patent US9868730B2, “Kappa opioid receptor selective compounds, compositions, and uses thereof” (The Trustees of Columbia University in the City of New York, priority 2013, dated 2018).
# Chains of the proteins cited; added tags and fusions are not shown. Lines headed by an entry give the natural chain unless they say otherwise; changes in a name come on top.
# UniProt P41145: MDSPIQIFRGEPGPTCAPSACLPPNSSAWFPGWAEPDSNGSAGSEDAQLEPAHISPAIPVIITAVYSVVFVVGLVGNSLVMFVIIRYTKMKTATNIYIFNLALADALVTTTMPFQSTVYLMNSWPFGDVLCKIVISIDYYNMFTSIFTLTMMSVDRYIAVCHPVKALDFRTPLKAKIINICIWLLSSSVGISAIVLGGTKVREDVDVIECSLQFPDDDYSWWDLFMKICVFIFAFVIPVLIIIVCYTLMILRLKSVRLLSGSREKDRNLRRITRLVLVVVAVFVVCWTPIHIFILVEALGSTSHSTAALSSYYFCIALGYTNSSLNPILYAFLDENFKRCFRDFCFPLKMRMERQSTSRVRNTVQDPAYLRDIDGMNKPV
# “Also recorded” adds a separate entry of the source.
# Biological target: KOP receptor (Homo sapiens, UniProt P41145)
# Assay: G protein bias from BRET-based G protein activation and arrestin recruitment assays
# Assay type: cell-based
smiles,measurement,value
"NC(N)=Nc1ccc2c3c([nH]c2c1)[C@@H]1Oc2c(O)ccc4c2[C@@]12CCN(CC1CC1)[C@H](C4)[C@]2(O)C3 [6′-GNTI, 6′-guanidinonaltrindole]",bias toward G protein activation over arrestin,showed bias toward G protein activation over arrestin; also recorded: biased toward G protein activation
